Patent US8115046B2, “Micro encapsulation composition for hydrocarbons and detoxification of highly hazardous chemicals and substances” (dated 2012)

Test: Perchloroethylene oxidation with dual use system and peracetic acid
Conditions: Table 2 Entry 6 and Table 3 Entry 3 with peracetic acid

Compound: ClC(Cl)=C(Cl)Cl
- oxidized (after 30 minutes): 99.861%
- oxidized (after 1.5 hours): 99.898%
